Type in all cases: cell-based, human
One assay relates to SCC4 cells. The assay can be described thus: MTS cell proliferation assay, SCC4. The settings on record: vitamin D resistant SCC4 cells; FIGS. 7c, 8 and 9. The text has this:
Dose-dependent effects of compounds on cell cycle progression was monitored using a CellTiter 96 Aqueous Non-Radioactive Cell Proliferation Assay Kit (Promega). The assay composed of solutions of a novel tetrazolium compound (MTS) and an electron coupling reagent (phenazine methosulfate; PMS). MTS is reduced by metabolically active cells into a soluble formazan product that absorbs at 490 nm. The quantity of formazan product absorbing at 490 nm is directly proportional to the number of living cells.
On the technique in general: Tetrazolium dyes change colour on reduction, which living cells bring about.

The subject of assay [1] is total intracellular HDAC activity. Description: HDACi activity with fluorogenic substrate in live SCC4 cells. To be noted: increasing concentration, FIG. 2a, b. The procedure:
(§1) Compounds were also tested along with 1,25D for HDACi activity using a fluorogenic substrate in vivo in SCC25 and SCC4 cells (FIGS. 2a, b). This assay measures the inhibition of total intracellular HDAC activity and determines the capacity of compounds to inhibit HDACs in the form of their naturally occurring complexes.

For assay [2] the test system is unchanged. Description: HDACi activity with fluorogenic substrate in live SCC25 cells. To be noted: increasing concentration, FIG. 2a, b. The procedure:
as §1

The text below walks through data of patent publication US9428447B2, “Bis-(aryl/heteroaryl)-methylene compounds, pharmaceutical compositions containing same and their use for treating cancer” (The Royal Institution For The Advancement of …, priority 2011, dated 2016).

On to `C=C1/C(=C\C=C2/CCC[C@]3(C)[C@@H]([C@H](C)CCCC(C)(C)O)CC[C@@H]23)C[C@@H](O)C[C@@H]1O` [1,25D, 1,25-dihydroxyvitamin D, reference compound], for which, in the assay on SCC4 cells, the “antiproliferative potency (MTS)” value is “ineffective”. Further, the “inhibition of total intracellular HDAC activity (substrate deacetylation)” value in assay [1] and in assay [2] was “had no effect on substrate deacetylation” in each case.
